Chains of the proteins cited; added tags and fusions are not shown.
UniProt Q96KS0, whole entry: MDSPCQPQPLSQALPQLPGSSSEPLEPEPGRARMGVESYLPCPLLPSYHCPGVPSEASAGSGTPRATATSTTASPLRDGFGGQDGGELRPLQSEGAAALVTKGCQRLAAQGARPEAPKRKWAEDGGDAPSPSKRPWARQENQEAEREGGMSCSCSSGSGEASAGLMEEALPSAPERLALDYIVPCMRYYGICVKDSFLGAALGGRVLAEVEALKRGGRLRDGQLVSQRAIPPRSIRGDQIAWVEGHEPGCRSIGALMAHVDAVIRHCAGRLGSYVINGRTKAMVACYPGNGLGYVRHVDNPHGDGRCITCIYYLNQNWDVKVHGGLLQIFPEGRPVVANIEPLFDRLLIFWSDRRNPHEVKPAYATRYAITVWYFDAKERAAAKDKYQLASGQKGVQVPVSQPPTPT

According to BindingDB's records for patent US10287286 (Takeda Pharmaceutical, 2019):

Biological target: Prolyl hydroxylase EGLN2 (Homo sapiens, UniProt Q96KS0)
Assay: PHD1 Enzyme Assay

Row | IC50 [µM] | Structure (SMILES)
1 | 0.543 | N#Cc1ccc(-c2ccnc3ncnn23)cc1 [US10287286, Example 38]
2 | 0.053 | [CH3][Na]1[CH2]CC(OC(=O)Nc2cc(-c3ccc(C#N)c(F)c3)n3ncnc3c2)C[CH2]1 [US10287286, Example 197]
